Laboratory results published in patent US20110028517A1 (LABORATORIOS DEL DR. ESTEVE, S.A., priority 2008, published 2011).

Protein sequences, listed by entry. Tags and fused reporters are not part of them.
UniProt P47746, whole entry: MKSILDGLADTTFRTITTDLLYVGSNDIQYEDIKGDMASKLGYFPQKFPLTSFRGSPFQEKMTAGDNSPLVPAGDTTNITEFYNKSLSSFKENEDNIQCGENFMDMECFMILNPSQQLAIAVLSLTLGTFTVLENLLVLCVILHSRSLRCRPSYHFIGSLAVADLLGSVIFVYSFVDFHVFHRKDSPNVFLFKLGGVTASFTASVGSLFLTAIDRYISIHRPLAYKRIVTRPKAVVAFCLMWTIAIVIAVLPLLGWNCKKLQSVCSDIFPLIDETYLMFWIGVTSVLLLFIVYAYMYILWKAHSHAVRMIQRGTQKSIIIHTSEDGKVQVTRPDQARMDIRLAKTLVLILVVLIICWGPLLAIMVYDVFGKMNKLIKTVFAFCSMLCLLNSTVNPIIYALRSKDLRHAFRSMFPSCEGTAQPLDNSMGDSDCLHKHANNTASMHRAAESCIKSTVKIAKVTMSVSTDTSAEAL
UniProt P20272, whole entry: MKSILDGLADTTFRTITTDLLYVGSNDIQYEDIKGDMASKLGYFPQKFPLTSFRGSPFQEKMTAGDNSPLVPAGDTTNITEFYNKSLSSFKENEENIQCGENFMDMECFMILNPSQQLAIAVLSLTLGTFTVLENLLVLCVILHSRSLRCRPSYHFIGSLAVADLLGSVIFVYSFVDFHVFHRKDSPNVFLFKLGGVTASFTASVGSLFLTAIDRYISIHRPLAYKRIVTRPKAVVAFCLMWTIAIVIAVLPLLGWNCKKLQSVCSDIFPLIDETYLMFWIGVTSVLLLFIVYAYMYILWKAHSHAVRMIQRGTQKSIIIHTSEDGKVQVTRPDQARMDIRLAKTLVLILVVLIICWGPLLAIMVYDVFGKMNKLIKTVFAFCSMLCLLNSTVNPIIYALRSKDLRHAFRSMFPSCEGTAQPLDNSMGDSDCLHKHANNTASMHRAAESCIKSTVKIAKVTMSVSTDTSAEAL

Columns and labels:
[1] = target: T1, CB1 receptors present in the CNS (Mus musculus, UniProt P47746); assay: Reversion of the analgesic effect of CP-55,940 in tail flick test in mice; format: in vivo; conditions: 5 mg/kg intraperitoneal
T1 construct: from tissue; host or cells: live CD1 mouse, central nervous system
Description: (§1) Male CD1 mice (Charles River Laboratories), weighting 30 to 40 g (7-8 weeks old) and Male Wistar rats (Charles River Laboratories), weighting 260-300 g (7-8 weeks old) at the time of experiment, were housed in a controlled environment. Temperature was maintained at 22±2° C. on a 12-h light/dark cycle (On at 07:00 h and Off at 19:00 h) and food and water were available ad libitum. The experiments were performed during the light phase. The number of mice ranged from 4 to 15 per group in each individual experiment. Animals were always handled in accordance with ethical principles for the evaluation of pain in conscious animals (Zimmerman, 1983) and with the European Communities Council Directive of 24 November 1986 (86/609/ECC), and received approval by the local Ethical Committee.
(§2) CP-55,940 (Ref. 0949, Tocris; Wiley et al., 1995) was administrated by subcutaneous route at 0.3 mg/kg in a volume of 5 ml/kg in mice and by intraperitoneal route at 0.5 mg/kg in a volume of 2 ml/kg in rat. NESS-0327 (Ruiu et al., 2003) was administrated by intraperitoneal route at 0.3 mg/kg and 1 mg/kg in a volume of 10 ml/kg in mice. […]
(§3) The tail flick test was used to evaluate the antinociceptive effect of compounds. […] A noxious beam of light was focused on the mice tail about 4 cm from its tip, and the tail flick latency was recorded automatically to the nearest 0.1 s. […]

[2] = target: T2, CB1 receptors present in the CNS (Rattus norvegicus, UniProt P20272); assay: Reversion of the analgesic effect of CP-55,940 in tail flick test in rat; format: in vivo; conditions: 10 mg/kg oral
T2 construct: from tissue; host or cells: live Wistar rat, central nervous system
Description: as §1, §2, §3

Question: With Cc1c(C(=O)NN2CCCCC2)nn(-c2ccc(Cl)cc2Cl)c1-c1ccc(Cl)cc1 [Rimonabant, N-(piperidin-1-yl)-5-(4-chlorophenyl)-1-(2,4-dichlorophenyl)-4-methyl-1H-pyrazole-3-carboxamide, reference compound] as the molecule, how does the “reversion of the analgesic effect of CP-55,940” value ([1]; CP-55,940 0.3 mg/kg subcutaneous, FIG. 6) read?
Answer: significantly reverted

Question: What about the “effect by itself in tail flick test” value ([1]; without CP-55,940) of the same molecule?
Answer: Neither Rimonabant (5 mg/kg) nor the (4S,5S)-5-(4-chlorophenyl)-1-(2,4-dichlorophenyl)-N-(cis-2,6-dimethylpiperidin-1-yl)-4-methyl-4,5-dihydro-1H-pyrazole-3-carboxamide enantiomer (5 mg/kg) showed an effect by themselves

Question: And the “reversion of the analgesic effect of CP-55,940” value ([2]; CP-55,940 0.5 mg/kg intraperitoneal, FIG. 7)?
Answer: significantly reverted

Question: And the “effect by itself in tail flick test” value ([2]; without CP-55,940)?
Answer: Neither Rimonabant (10 mg/kg) nor the ((4S,5S)-5-(4-chlorophenyl)-1-(2,4-dichlorophenyl)-N-(cis-2,6-dimethylpiperidin-1-yl)-4-methyl-4,5-dihydro-1H-pyrazole-3-carboxamide enantiomer (10 mg/kg) showed an effect by themselves
